Laboratory results published in ChEMBL document CHEMBL1145402, “Discovery of potent and muscle selective androgen receptor modulators through scaffold modifications” (J Med Chem, 2007).

The chains behind the UniProt entries cited, without tags or fusion partners. Where a name states a change or a piece, a line headed by the entry shows the natural chain unless it says otherwise.
UniProt P10275: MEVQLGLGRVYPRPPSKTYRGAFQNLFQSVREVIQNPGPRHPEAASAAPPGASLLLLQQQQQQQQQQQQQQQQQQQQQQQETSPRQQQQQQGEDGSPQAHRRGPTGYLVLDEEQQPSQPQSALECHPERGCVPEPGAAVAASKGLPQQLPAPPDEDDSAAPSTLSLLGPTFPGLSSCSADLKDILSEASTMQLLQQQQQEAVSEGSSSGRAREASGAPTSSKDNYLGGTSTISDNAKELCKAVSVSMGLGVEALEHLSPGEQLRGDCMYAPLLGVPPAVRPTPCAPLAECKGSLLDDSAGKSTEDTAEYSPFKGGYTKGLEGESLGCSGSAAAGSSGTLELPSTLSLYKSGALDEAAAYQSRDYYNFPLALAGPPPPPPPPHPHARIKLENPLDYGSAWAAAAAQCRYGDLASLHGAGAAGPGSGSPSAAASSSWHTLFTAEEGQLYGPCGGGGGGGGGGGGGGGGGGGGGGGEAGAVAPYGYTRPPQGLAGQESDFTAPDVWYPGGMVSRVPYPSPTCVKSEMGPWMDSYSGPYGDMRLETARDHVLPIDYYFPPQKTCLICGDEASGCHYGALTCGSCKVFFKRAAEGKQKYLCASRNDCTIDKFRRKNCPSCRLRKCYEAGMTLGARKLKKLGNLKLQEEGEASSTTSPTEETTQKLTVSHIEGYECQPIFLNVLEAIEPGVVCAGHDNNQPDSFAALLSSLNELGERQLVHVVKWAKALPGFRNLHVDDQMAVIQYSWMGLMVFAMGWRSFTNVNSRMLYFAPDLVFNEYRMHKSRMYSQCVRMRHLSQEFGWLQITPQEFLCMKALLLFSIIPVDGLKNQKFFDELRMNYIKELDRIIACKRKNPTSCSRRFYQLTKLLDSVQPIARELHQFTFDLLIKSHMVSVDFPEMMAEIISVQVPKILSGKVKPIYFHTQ

Legend:
Androgen receptor [1] = target: T1, Androgen receptor (Homo sapiens, UniProt P10275); assay: Agonist activity at androgen receptor expressed in C2C12 mouse cells by luciferase reporter transactivation assay; assay type: functional, cell-based
Androgen receptor [2] = target: T1, Androgen receptor; assay: Displacement of [3H]DHT from androgen receptor expressed in MDA-MB-453 cells; assay type: cell-based

| Structure (SMILES) | EC50 (Androgen receptor [1]) | Ki (Androgen receptor [2]) |
| --- | --- | --- |
| Cc1c(N2C(=O)N3CC[C@@H](O)[C@H]3[C@@H]2C)ccc(C#N)c1Cl | 13 nM | 2.9 nM |
| Cc1c(N2C(=O)N3CC[C@H](O)[C@H]3[C@@H]2C)ccc(C#N)c1Cl | 5.2 nM | 1.5 nM |
| Cc1c(N2C(=O)N3CC[C@H](O)[C@H]3[C@H]2C)ccc(C#N)c1Cl | 87 nM | 4 nM |
| Cc1c(N2C[C@@H]3[C@H](O)CC[C@@H]3C2=O)ccc(C#N)c1Cl | – | 2.2 nM |
| CC1=C(c2ccc(C#N)c(Cl)c2C)C(=O)N2CC[C@H](O)[C@@H]12 | – | 0.5 nM |
